# Measured values taken from patent publication US5604245A, “Use of 4-amino-1-(2-pyridyl)piperidines for the preparation of a medicament for the treatment of conditions deriving from disorders of the serotoninergic systems mediated by 5-HT3 receptors” (priority 1991, dated 1997).
# Sequences of proteins named here, by UniProt entry; tags and fusion partners are left off. Residues count along the entry.
# UniProt P35563, 24-483: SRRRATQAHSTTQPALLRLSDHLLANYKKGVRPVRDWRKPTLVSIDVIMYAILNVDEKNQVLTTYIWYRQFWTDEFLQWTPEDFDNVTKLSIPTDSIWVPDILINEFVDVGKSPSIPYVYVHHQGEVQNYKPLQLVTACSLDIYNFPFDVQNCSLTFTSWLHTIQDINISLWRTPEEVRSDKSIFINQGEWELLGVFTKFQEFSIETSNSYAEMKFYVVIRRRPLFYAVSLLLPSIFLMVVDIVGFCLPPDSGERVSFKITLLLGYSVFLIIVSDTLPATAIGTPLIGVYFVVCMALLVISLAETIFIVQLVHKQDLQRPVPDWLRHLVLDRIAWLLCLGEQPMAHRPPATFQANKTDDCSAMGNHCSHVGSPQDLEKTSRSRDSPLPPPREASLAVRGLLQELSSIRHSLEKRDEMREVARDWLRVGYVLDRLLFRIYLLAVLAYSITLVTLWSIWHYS
# Biological target: 5-HT3 receptors (Rattus norvegicus, UniProt P35563)
# Test: biochemical
# Type: binding
# Set-up: the cortical tissue from 4 animals was homogenized in 20 volumes of HEPES; from tissue; host or cells: cerebral cortical membranes of male rats (about 200 g)
smiles,measurement,value
NCCc1c[nH]c2ccc(O)cc12 [serotonin],Ki,1200 nM
